# Literature values, collected in PMC7438494, “Bedaquiline inhibits the yeast and human mitochondrial ATP synthases” (Communications Biology, 2020).
# Test system: porcine mitochondria
compound,measurement,value
COc1nc2ccc(Br)cc2cc1[C@@H](c1ccccc1)[C@@](O)(CCN(C)C)c1cccc2ccccc12,uncoupling effect,not observed
